{"sequences": {"note": "Protein sequences, listed by entry. Tags and fused reporters are not part of them.", "UniProt P0DMS8, whole entry": "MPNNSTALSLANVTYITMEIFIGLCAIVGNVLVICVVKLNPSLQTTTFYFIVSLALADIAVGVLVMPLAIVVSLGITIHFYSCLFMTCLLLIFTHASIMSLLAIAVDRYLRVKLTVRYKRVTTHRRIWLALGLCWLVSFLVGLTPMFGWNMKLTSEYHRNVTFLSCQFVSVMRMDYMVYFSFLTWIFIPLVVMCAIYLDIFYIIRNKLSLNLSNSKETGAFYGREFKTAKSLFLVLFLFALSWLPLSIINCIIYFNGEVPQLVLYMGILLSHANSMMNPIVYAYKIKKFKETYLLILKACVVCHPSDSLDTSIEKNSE"}, "source": "patent US20020015967A1", "about": "“FUNCTIONAL EXPRESSION OF ADENOSINE RECEPTORS IN YEAST” (priority 1998, published 2002)", "target": "T1, human A3 receptor (Homo sapiens, UniProt P0DMS8)", "T1 construct": "expressed in transfected cells", "test": "Radioligand displacement binding, [125I]AB-MECA, mammalian membranes", "conditions": "[125I]AB-MECA 0.75 nM; 10 ug mammalian membranes; 60 minutes room temperature; read-out: IC50 hA3R"}
{"substance": "(—)—N6-(2-phenylisopropyl)-adenosine [PIA]", "values": [{"measurement": "IC50", "value": 23.6, "unit": "nM"}]}
